Data as given in ChEMBL document CHEMBL1165890, “Inside HDAC with HDAC inhibitors” (Eur J Med Chem, 2010).

Target: T1, Protein deacetylase HDAC6 (Homo sapiens, UniProt Q9UBN7)
T1 sequence (Q9UBN7 whole entry): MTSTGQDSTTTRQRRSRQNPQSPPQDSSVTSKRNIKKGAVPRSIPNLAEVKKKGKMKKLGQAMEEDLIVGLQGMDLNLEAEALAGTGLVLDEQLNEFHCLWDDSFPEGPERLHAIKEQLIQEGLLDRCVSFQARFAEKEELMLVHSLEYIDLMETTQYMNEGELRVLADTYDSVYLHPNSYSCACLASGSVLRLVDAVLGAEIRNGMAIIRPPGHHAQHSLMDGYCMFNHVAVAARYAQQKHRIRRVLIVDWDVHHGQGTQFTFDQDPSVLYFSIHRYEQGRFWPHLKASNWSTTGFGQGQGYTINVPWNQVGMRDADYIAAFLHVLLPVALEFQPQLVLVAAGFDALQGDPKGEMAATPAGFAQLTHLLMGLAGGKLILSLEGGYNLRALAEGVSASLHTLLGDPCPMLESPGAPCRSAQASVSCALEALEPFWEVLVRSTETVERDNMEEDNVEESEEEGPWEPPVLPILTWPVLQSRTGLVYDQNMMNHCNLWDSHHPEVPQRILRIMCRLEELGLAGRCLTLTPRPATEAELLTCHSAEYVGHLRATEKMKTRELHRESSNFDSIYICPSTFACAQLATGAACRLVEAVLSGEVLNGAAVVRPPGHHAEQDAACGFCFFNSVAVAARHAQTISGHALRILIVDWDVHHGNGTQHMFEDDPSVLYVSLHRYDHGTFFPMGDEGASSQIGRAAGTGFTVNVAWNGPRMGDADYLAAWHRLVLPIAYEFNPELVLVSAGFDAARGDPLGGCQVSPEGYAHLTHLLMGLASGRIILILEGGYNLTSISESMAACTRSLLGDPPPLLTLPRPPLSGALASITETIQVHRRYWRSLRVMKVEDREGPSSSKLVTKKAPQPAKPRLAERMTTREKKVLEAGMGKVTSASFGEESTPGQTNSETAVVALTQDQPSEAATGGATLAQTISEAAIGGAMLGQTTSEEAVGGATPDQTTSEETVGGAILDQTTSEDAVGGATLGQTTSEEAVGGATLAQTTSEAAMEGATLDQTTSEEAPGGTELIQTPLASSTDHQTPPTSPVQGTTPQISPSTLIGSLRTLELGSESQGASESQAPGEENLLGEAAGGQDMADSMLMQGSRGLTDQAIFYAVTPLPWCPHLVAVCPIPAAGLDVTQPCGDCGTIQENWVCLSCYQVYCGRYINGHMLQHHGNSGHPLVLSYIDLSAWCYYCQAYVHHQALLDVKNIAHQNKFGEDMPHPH
Test: Inhibition of recombinant HDAC6

Q: For `CC(=O)Nc1ccc(C(=O)Nc2cc(-c3cccs3)ccc2N)cc1`, which IC50 is on record?
A: > 20 µM
